Calls of active or inactive are those of the source. The calls are words filed in the database; no cut-off is given here.

The chains behind the UniProt entries cited, without tags or fusion partners. Where a name states a change or a piece, a line headed by the entry shows the natural chain unless it says otherwise.
UniProt P00915: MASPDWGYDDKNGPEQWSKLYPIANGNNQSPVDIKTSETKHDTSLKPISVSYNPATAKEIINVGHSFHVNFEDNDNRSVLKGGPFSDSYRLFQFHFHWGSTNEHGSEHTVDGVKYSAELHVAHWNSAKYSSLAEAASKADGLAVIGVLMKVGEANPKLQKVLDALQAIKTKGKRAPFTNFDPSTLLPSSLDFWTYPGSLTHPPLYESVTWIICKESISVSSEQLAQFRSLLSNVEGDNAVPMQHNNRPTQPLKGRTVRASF

The assay addresses Carbonic anhydrase 1 (Homo sapiens, UniProt P00915). The experiment in a line: Competitive inhibition of human erythrocytes CA1 using 4-nitrophenylacetate as substrate by Lineweaver-Burk plot analysis.

`O=c1[nH]cc(CO)c(=O)[nH]1`: the inhibition mode entry is “Active”.

The record behind these values is ChEMBL document CHEMBL3600346, “Synthesis and carbonic anhydrase inhibitory properties of novel uracil derivatives” (Bioorg Med Chem Lett, 2015).
